Assay results: ChEMBL document CHEMBL1135896, “Synthesis and notable antimalarial activity of acyclic peroxides, L-(alkyldioxy)-L-(methyldioxy)cyclododecanes” (J Med Chem, 2002)

Tested on: FM3A
Assay: Mammalian cell cytotoxicity assessed against mouse mammary tumor FM3A cells
Assay type: functional, cell-based
Procedure, shortened: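 Mouse mammary tumor FM3A cells in culture used as a mammalian cytotoxicity control; EC50 determined by a previously reported protocol. Selectivity is the mean EC50 for FM3A cells divided by the mean EC50 for P. falciparum.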

For `COOC1(OOC)CCC(C(C)(C)C)CC1`, the EC50 was 25 µM.

In the case of `CCCCC(CCCC)(OOC)OOC`, the EC50 is reported as over 45 µM.
